# Article PMC3558928 (Chemistry & biology, 2013)
# Protein sequences, listed by entry. Tags and fused reporters are not part of them. Residues count along the entry.
# UniProt P54132, 636-1298: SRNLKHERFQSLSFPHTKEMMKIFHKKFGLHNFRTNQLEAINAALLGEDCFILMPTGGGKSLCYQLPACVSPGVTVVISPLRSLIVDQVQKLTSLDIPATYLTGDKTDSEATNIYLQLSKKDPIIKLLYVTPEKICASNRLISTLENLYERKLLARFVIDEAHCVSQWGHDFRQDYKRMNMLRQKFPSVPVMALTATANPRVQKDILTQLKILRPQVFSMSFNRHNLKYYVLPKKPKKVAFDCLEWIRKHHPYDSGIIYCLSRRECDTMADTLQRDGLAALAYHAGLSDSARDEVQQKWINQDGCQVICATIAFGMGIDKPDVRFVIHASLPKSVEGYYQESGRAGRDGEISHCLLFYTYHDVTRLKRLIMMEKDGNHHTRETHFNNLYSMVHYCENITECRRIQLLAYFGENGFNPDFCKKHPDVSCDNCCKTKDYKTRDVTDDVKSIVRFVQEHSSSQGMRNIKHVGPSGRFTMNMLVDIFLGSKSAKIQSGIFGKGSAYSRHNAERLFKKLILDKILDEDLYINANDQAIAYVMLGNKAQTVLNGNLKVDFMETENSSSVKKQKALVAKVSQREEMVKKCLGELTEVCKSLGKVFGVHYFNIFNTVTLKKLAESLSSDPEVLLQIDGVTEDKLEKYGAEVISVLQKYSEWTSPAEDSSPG
# Columns and labels:
# [1] = target: BLM (Homo sapiens, UniProt P54132); test: ssDNA-dependent ATPase activity of BLM; format: biochemical
# [2] = target: BLM^636–1298 (Homo sapiens, UniProt P54132); test: Gel-based DNA unwinding assay, forked duplex, truncated BLM; format: biochemical
smiles,measurement,setting,value
O=C(Nc1ccc(F)c(C(F)(F)F)c1)Nc1nnc(-c2ccncc2)s1 [ML216],Ki,[1],1760 ± 260 nM
same,IC50,[2],970 nM
